Measured values reported in patent US20240141059A1 (Bristol-Myers Squibb, published 2024).

T1: human GITR on cells (human, UniProt Q9Y5U5 26-241)
T1 sequence (looked up): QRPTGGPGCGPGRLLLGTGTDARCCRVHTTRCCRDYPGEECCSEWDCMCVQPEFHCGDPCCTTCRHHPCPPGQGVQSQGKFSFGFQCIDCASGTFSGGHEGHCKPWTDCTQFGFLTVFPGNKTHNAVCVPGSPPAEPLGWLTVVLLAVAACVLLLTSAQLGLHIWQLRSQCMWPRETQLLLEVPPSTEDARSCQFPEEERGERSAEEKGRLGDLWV

T2: human GITR (human, UniProt Q9Y5U5 26-241)
T2 sequence (looked up): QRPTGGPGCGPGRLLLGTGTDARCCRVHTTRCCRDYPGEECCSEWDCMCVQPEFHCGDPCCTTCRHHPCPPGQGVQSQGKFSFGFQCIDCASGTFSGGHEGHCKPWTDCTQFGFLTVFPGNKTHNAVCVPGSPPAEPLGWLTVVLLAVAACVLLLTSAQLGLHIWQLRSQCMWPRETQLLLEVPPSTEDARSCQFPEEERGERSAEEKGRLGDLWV


Columns and labels:
human GITR on cells = target: T1, human GITR on cells; assay: cell-based or functional assay
human GITR = target: T2, human GITR; assay: cell-based or functional assay

Row | Binder | NFKB signaling EC50 (human GITR on cells) [nM] | NFKB signaling (phospho-p65), CD4+ T cells, EC50 (human GITR) [nM] | NFKB signaling (phospho-p65), CD4+ T cells, Emax (human GITR) [%] | NFKB signaling (phospho-p65), CD8+ T cells, EC50 (human GITR) [nM] | NFKB signaling (phospho-p65), CD8+ T cells, Emax (human GITR) [%]
1 | anti-GITR-IgG2-IgG1 (antibody) heavy: QVQLVESGGGVVQPGRSLRLSCAASGFTFSSYGMHWVRQAPGKGLEWVAVIWYEGSNKYYADSVKGRFTISRDNSKNTLYLQMNSLRAEDTAVYYCARGGSMVRGDYYYGMDVWGQGTTVTVSSASTKGPSVFPLAPCSRSTSESTAALGCLVKDYFPEPVTVSWNSGALTSGVHTFPAVLQSSGLYSLSSVVTVPSSNFGTQTYTCNVDHKPSNTKVDKTVERKCCVE[left out - human IgG1 Fc] light: AIQLTQSPSSLSASVGDRVTITCRASQGISSALAWYQQKPGKAPKLLIYDASSLESGVPSRFSGSGSGTDFTLTISSLQPEDFATYYCQQFNSYPYTFGQGTKLEIKRTVAAPSVFIFPPSDEQLKSGTASVVCLLNNFYPREAKVQWKVDNALQSGNSQESVTEQDSKDSTYSLSSTLTLSKADYEKHKVYACEVTHQGLSSPVTKSFNRGEC | ~10 | – | – | – | –
2 | GITR.6.G2.G1f (antibody, human IgG2, kappa) heavy: QVQLVESGGGVVQPGRSLRLSCAASGFTFSSYGMHWVRQAPGKGLEWVAVIWYEGSNKYYADSVKGRFTISRDNSKNTLYLQMNSLRAEDTAVYYCARGGSMVRGDYYYGMDVWGQGTTVTVSSASTKGPSVFPLAPCSRSTSESTAALGCLVKDYFPEPVTVSWNSGALTSGVHTFPAVLQSSGLYSLSSVVTVPSSNFGTQTYTCNVDHKPSNTKVDKTVERKCCVE[left out - human IgG1 Fc] light: AIQLTQSPSSLSASVGDRVTITCRASQGISSALAWYQQKPGKAPKLLIYDASSLESGVPSRFSGSGSGTDFTLTISSLQPEDFATYYCQQFNSYPYTFGQGTKLEIKRTVAAPSVFIFPPSDEQLKSGTASVVCLLNNFYPREAKVQWKVDNALQSGNSQESVTEQDSKDSTYSLSSTLTLSKADYEKHKVYACEVTHQGLSSPVTKSFNRGEC | – | 9 | 100 | 3.77 | 92
3 | anti-GITR-IgG1 (antibody) heavy: QVQLVESGGGVVQPGRSLRLSCAASGFTFSSYGMHWVRQAPGKGLEWVAVIWYEGSNKYYADSVKGRFTISRDNSKNTLYLQMNSLRAEDTAVYYCARGGSMVRGDYYYGMDVWGQGTTVTVSSASTKGPSVFPLAPSSKSTSGGTAALGCLVKDYFPEPVTVSWNSGALTSGVHTFPAVLQSSGLYSLSSVVTVPSSSLGTQTYICNVNHKPSNTKVDKKV[left out - human IgG1 Fc] light: AIQLTQSPSSLSASVGDRVTITCRASQGISSALAWYQQKPGKAPKLLIYDASSLESGVPSRFSGSGSGTDFTLTISSLQPEDFATYYCQQFNSYPYTFGQGTKLEIKRTVAAPSVFIFPPSDEQLKSGTASVVCLLNNFYPREAKVQWKVDNALQSGNSQESVTEQDSKDSTYSLSSTLTLSKADYEKHKVYACEVTHQGLSSPVTKSFNRGEC | ~10 | – | – | – | –
4 | GITR.6-IgG1f (antibody) heavy: QVQLVESGGGVVQPGRSLRLSCAASGFTFSSYGMHWVRQAPGKGLEWVAVIWYEGSNKYYADSVKGRFTISRDNSKNTLYLQMNSLRAEDTAVYYCARGGSMVRGDYYYGMDVWGQGTTVTVSSASTKGPSVFPLAPSSKSTSGGTAALGCLVKDYFPEPVTVSWNSGALTSGVHTFPAVLQSSGLYSLSSVVTVPSSSLGTQTYICNVNHKPSNTKVDKRV[left out - human IgG1 Fc] light: AIQLTQSPSSLSASVGDRVTITCRASQGISSALAWYQQKPGKAPKLLIYDASSLESGVPSRFSGSGSGTDFTLTISSLQPEDFATYYCQQFNSYPYTFGQGTKLEIKRTVAAPSVFIFPPSDEQLKSGTASVVCLLNNFYPREAKVQWKVDNALQSGNSQESVTEQDSKDSTYSLSSTLTLSKADYEKHKVYACEVTHQGLSSPVTKSFNRGEC | – | 7.3 | – | 20.1 | –
